For one compound, Cure ratio results are on record in patent US8921362B2, “6,7-dialkoxy quinazoline derivatives and methods of treating drug resistant and other tumors” (Natco Pharma Limited, priority 2008, dated 2014).

Structures can show the parent of a compound that is named as a salt.

The subject of this test is lung cancer. In words: Curative effect from in vivo studies in nude mice.

Take `C#Cc1cccc(Nc2ncnc3cc(OCCOC)c(OCCOC)cc23)c1` [Erlotinib HCl, N-(3-Ethylnylphenyl)-6,7-bis(2-methoxyethoxy)-4-quinazolinamine]: the Cure ratio runs as follows: (IP, 2.5 mg/Kg) 1/5; (IP, 5 mg/Kg) 2/5; (IP, 10 mg/Kg) 2/5; (IP, 20 mg/Kg) 3/5; (oral, 2.5 mg/Kg) 2/5; (oral, 5 mg/Kg) 0/5. In addition, the Cure ratio (oral, 10 mg/Kg) is 1/5 and the Cure ratio (oral, 20 mg/Kg) was 2/5.
